## AlphaSeq binding of Ab-95 light chain variants to a spike HR2 peptide

Antigen: PDVDLGDISGINAS, a 14-residue peptide of the SARS-CoV-2 spike HR2 region.

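The starting antibody came from a phage panning campaign against this peptide. In library AAYL52, one, two or three CDR residues were substituted; doubles and triples were drawn at random. AlphaSeq pools MATa yeast showing the antibodies with MATalpha yeast showing the peptide. Mating (16 h, 30 °C) was followed by selection of diploids and sequencing of their barcodes. The ratio of observed to expected reads was calibrated, replicate by replicate, on BCL2-family standards whose Kd was known from biolayer interferometry. Each pool was mated in three replicate cultures.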

The variants keep the heavy chain, the linker and the frameworks of Ab-95 (scFv order VH, a 15-residue (Gly4Ser)3 linker, VL).
VH: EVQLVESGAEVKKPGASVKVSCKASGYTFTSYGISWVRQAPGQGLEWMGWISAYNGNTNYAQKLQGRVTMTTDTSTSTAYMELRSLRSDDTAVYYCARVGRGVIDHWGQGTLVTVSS
VL: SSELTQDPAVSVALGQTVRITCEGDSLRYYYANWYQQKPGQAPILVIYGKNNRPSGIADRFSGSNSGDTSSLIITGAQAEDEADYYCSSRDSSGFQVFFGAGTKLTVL

Each variant's VL is given in full.
Every variant below is changed at F98 of the VL (sequential numbering).
Kd is apparent (estimated from mating counts) and averaged on the log scale over replicates with a signal. Smaller is tighter.
Where no diploid with the target was found in any replicate, the entry reads "nd": below detection, most likely a poor binder, though not proof of it.
Order: sorted from the lowest average up, undetected variants last.
Nonspecific signal, from three strains lacking the peptide, appeared in 28% of pairings of library AAYL52, centred on 8.2 µM (5% of these signals below 800 nM); values are not corrected for it.

Variant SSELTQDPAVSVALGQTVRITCEGDSLRYQYANWYQQKPGQAPILVIYGKNNRPSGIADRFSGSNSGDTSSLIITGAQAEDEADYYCNSRDSSGFQVTFGAGTKLTVL showed 10 nM (3 of 3 replicates). For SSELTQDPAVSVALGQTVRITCEGDSLRYYYANWYQQKPGQAPILVIYGKNNRPSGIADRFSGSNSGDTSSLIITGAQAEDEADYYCSSRDFWGFQVHFGAGTKLTVL, the assay gave 120 nM (3 of 3 replicates). Variant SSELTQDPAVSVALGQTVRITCEGDSLRYYYANWYQQKPGQAPILVIYGKNNRPSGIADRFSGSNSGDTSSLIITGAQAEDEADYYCSSRDMEGFQVLFGAGTKLTVL gave 170 nM (3 of 3 replicates). Variant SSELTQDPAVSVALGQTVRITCEGDSLRYYYANWYQQKPGQAPILVIYGKNNRPSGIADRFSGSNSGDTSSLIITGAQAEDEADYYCSSIDSSGFQCKFGAGTKLTVL showed 260 nM (3 of 3 replicates). Variant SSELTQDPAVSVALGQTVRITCEGISLRPYYANWYQQKPGQAPILVIYGKNNRPSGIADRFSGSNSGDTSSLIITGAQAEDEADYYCSSRDSSGFQVHFGAGTKLTVL gave 270 nM (3 of 3 replicates). Variant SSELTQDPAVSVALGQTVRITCEGDSLRYYYANWYQQKPGQAPILVIYGKNNRSSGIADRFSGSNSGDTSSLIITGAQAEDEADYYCSSRDSSVFQVMFGAGTKLTVL showed 350 nM (3 of 3 replicates). Variant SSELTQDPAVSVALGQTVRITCEGDSLRYYYANWYQQKPGQAPILVIYGKNNVPSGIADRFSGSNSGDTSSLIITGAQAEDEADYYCSSSDSSGFQVKFGAGTKLTVL showed 540 nM (3 of 3 replicates). Variant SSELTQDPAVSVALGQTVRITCEGDSLRYYYANWYQQKPGQAPILVIYGKNNRPSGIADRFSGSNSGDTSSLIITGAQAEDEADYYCSSRDSSGHCVHFGAGTKLTVL showed 1.1 µM (3 of 3 replicates).

For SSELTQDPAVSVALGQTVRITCEGASLRYYYANWYQQKPGQAPILVIYGKNNRPSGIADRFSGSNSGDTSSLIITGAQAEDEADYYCSSRDSSIFQVKFGAGTKLTVL, the assay gave 1.5 µM (3 of 3 replicates). For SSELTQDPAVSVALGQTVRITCEGDSLRYYYANWYQQKPGQAPILVIYGKNNRPSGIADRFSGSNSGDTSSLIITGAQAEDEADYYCSSRDSSGFVVNFGAGTKLTVL, the assay gave 1.7 µM (3 of 3 replicates). With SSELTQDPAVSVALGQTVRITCEGDSLRYYYANWYQQKPGQAPILVIYKKNNRPSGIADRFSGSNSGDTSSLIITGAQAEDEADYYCSSRDSSGWQVQFGAGTKLTVL the result was 2.2 µM (1 of 3 replicates). Variant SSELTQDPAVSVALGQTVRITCEGDSLRYYYANWYQQKPGQAPILVIYGKANRPSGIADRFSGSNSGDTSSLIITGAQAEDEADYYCSKRDSSGFQVYFGAGTKLTVL showed 2.8 µM (2 of 3 replicates). For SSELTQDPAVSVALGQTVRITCEDDSLRYYYANWYQQKPGQAPILVIYGKNNRPSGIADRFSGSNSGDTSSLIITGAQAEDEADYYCSSRDSSGFQVCFGAGTKLTVL, the assay gave 4.8 µM (1 of 3 replicates). With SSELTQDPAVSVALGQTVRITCEGDSLRYTYANWYQQKPGQAPILVIYGKNNWPSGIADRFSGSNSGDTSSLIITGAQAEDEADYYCSSRDSSGFQVQFGAGTKLTVL the result was 6.2 µM (1 of 3 replicates). Variant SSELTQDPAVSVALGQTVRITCEGDDLRYYYANWYQQKPGQAPILVIYGKNNRPSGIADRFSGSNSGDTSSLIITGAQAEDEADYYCSSRDESGFQVNFGAGTKLTVL gave 8.1 µM (1 of 3 replicates). Variant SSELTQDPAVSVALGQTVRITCEGDSLAYYWANWYQQKPGQAPILVIYGKNNRPSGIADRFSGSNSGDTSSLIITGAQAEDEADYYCSSRDSSGFQVVFGAGTKLTVL showed 11 µM (2 of 3 replicates).

Variant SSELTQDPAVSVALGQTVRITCEGDSYRYYYANWYQQKPGQAPILVIYGKNNRPSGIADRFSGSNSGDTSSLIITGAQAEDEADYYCSSRGSSGFQVVFGAGTKLTVL gave 11 µM (2 of 3 replicates). With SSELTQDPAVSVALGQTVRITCEGDSLRYYYANWYQQKPGQAPILVIYGKNCRPSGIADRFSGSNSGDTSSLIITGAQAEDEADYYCSSRDSSFFQVRFGAGTKLTVL the result was 13 µM (1 of 3 replicates). Variant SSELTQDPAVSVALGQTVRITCEGDSLRYYYANWYQQKPGQAPILVIYGKNNRPSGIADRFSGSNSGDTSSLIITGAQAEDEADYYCSSRDSKGLQVDFGAGTKLTVL gave 17 µM (1 of 3 replicates). Variant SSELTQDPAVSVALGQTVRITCEGDVLRYYYLNWYQQKPGQAPILVIYGKNNRPSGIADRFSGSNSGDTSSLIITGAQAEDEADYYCSSRDSSGFQVAFGAGTKLTVL showed 25 µM (2 of 3 replicates). Variant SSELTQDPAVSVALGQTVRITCEGDSLRFYYYNWYQQKPGQAPILVIYGKNNRPSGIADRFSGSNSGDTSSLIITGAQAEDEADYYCSSRDSSGFQVKFGAGTKLTVL showed 110 µM (1 of 3 replicates). Variant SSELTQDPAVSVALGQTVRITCIGDSLRYYYANWYQQKPGQAPILVIYAKNNRPSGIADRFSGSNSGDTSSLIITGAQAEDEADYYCSSRDSSGFQVIFGAGTKLTVL showed nd (0 of 3 replicates).

Repeated from above, the 2 best binders with a signal in all replicates:

| VL | Kd (apparent) | replicates with signal |
|---|---|---|
| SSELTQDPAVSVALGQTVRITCEGDSLRYQYANWYQQKPGQAPILVIYGKNNRPSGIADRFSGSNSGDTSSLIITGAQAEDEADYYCNSRDSSGFQVTFGAGTKLTVL | 10 nM | 3 of 3 |
| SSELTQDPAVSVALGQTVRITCEGDSLRYYYANWYQQKPGQAPILVIYGKNNRPSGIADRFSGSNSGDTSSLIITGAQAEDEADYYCSSRDFWGFQVHFGAGTKLTVL | 120 nM | 3 of 3 |

In this assay the parent's reference entry averaged 200 nM; its copy inside this library read 180 nM.

Data: MIT Lincoln Laboratory AlphaSeq set, Engelhart et al. 2022, doi:10.1038/s41597-022-01779-4, as distributed in FLAb.